The target in experiment [1] is Melanin-concentrating hormone receptor 1 (Homo sapiens, UniProt Q99705). In words: Binding affinity to human MCHR1 assessed as inhibition of MCH-mediated calcium ion influx by FLIPR assay. Type of experiment: functional. In outline: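 Functional antagonism at human MCH-R1: cells expressing hMCH-R1 were read by FLIPR for block of MCH-mediated Ca2+ influx, and the value was reported as Kb.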

Protein sequences, listed by entry. Tags and fused reporters are not part of them.
UniProt Q99705, whole entry: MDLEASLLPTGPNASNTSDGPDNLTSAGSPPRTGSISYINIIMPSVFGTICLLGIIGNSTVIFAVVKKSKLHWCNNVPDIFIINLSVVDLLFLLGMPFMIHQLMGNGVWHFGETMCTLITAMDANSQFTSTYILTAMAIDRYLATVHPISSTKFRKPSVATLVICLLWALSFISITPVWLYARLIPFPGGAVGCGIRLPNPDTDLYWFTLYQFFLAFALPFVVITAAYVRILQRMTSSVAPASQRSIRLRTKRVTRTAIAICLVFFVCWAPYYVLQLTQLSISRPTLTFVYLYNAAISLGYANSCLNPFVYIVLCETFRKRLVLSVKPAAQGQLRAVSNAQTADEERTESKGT
UniProt Q969V1, whole entry: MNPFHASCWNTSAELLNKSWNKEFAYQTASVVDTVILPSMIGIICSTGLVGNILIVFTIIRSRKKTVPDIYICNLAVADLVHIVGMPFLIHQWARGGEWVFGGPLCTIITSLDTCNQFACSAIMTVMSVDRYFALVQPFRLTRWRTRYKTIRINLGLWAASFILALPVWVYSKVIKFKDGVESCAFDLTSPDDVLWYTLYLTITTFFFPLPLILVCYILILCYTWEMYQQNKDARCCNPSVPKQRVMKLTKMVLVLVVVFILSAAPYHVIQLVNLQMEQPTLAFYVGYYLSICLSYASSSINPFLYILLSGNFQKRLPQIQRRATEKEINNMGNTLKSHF

Experiment [2] deals with Melanin-concentrating hormone receptor 2 (Homo sapiens) (UniProt Q969V1). As to the kind of experiment: Binding affinity to human MCHR2 assessed as inhibition of MCH-mediated calcium ion influx by FLIPR assay. It counts as functional.

Where only a bound is given, the exact number is not on record here.

With `N#Cc1cccc(-c2ccc(N(C(=O)Nc3cc(Cl)cc(Cl)c3)C3CCN(C4CCCC4)CC3)cc2)c1`, the Kb in experiment [1] was 3.1 nM. Besides, the Activity in experiment [2] was above 3 µM.

For the origin of these results see ChEMBL document CHEMBL1138940, “Design and synthesis of orally efficacious benzimidazoles as melanin-concentrating hormone receptor 1 antagonists” (Bioorg Med Chem Lett, 2006).
